Here are results for 70 compounds from PubChem BioAssay AID731 (The Scripps Research Institute Molecular Screening Center, 2007).

The chains behind the UniProt entries cited, without tags or fusion partners. Residues count along the entry.
UniProt P37231, 232-505 limits assumed: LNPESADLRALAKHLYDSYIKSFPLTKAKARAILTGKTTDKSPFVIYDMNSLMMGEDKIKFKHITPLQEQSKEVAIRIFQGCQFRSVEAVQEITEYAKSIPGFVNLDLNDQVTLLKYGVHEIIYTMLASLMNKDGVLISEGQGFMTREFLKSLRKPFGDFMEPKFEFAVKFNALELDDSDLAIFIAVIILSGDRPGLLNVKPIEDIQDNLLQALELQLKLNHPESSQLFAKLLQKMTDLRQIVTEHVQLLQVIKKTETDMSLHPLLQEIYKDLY
UniProt Q9Y6Q9, whole entry partner: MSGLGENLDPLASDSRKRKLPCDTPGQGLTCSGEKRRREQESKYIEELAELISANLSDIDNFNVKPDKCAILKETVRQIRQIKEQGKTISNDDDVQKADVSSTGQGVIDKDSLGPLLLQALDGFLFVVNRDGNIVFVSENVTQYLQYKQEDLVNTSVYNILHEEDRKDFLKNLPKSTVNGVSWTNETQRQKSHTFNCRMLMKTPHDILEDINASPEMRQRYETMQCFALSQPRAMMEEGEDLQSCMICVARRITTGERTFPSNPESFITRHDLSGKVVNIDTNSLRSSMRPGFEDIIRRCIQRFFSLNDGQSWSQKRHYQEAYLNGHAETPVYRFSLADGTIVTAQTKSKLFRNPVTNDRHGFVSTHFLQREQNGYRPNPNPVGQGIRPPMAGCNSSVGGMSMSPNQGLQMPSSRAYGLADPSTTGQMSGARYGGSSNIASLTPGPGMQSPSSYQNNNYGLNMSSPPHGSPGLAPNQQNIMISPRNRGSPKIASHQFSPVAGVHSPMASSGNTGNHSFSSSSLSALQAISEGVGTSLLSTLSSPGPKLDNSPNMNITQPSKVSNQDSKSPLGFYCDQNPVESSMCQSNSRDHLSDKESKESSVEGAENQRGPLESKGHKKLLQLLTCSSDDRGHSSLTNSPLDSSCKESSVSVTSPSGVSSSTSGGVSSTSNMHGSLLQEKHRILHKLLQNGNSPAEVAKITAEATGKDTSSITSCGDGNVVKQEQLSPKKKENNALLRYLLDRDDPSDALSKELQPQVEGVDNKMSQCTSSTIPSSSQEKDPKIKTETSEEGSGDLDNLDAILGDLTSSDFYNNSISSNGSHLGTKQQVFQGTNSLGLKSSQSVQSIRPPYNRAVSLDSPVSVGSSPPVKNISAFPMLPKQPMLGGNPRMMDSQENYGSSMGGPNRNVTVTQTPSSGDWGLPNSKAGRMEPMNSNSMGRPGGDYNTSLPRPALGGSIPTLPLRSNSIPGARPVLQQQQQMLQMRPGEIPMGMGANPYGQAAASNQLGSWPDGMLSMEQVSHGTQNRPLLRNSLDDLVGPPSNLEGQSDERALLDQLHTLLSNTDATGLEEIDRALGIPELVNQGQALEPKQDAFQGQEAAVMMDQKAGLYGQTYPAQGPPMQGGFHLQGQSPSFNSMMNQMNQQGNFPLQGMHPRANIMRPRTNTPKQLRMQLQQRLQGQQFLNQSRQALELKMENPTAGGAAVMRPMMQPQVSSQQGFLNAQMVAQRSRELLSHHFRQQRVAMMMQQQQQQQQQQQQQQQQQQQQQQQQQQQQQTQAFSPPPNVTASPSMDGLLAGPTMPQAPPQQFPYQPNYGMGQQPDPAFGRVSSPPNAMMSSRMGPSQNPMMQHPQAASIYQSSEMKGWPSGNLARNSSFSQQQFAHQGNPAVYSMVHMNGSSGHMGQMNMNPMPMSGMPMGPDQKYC

The entries are a selection whose mix differs from that of the whole data set. Calls of active or inactive are those of the source. No stated cut-off is given here; in the data, active means activation above about 23%; inactive means the rest.

For the assay, the target named is Peroxisome proliferator-activated receptor gamma (Homo sapiens) (UniProt P37231). In words: enhancers of SRC-3 binding to PPARgamma – biochemical, primary screen (AID 731).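 Further: 0% = DMSO and 100% = reference agonist.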 Particulars: biochemical PPARgamma/SRC-3 coactivator recruitment assay; at 8 µM; hits give high values.
For `Cc1cc(C)cc(OP(C)(=O)Nc2ccc(C)cc2C)c1` (stereo not given), the activation is inactive: 6.04%.

On to `CCOC(=O)c1ccc(NP(C)(=O)Oc2cc(C)cc(C)c2)cc1` (stereo not given), for which the activation was inactive: -0.25%.

In the case of `Cc1cc(C)cc(OP(C)(=O)Nc2ccccn2)c1` (stereo not given), the activation was inactive: -0.72%.

Turning to `CP(=O)(Nc1cccc(Br)c1)Oc1ccccc1` (stereo not given), the activation is inactive: -2.75%.

Consider `Cc1ccc(C)c(NP(C)(=O)Oc2ccccc2)c1` (stereo not given), for which the activation was inactive: 0.94%.

`CC1=NCCc2c1[nH]c1ccccc21.O=[N+]([O-])c1cc([N+](=O)[O-])c(O)c([N+](=O)[O-])c1`: the activation is inactive: 10.1%.

As to `CCCOc1ccc(NP(C)(=O)Oc2ccc(Cl)cc2)cc1` (stereo not given), the activation is inactive: -0.74%.

`CP(=O)(Nc1ccc(SC(F)(F)F)cc1)Oc1ccccc1` (stereo not given): the activation was inactive: 2.93%.

For the compound `CN1CCCCC1COC(=O)C1(O)c2ccccc2CCc2ccccc21` (stereo not given), the activation is inactive: -6.15%.

`COc1ccccc1OP(C)(=O)Nc1c(C)cccc1C` (stereo not given): the activation is inactive: 9.59%.

Take `O=[N+]([O-])c1cc([N+](=O)[O-])c(-n2nnc3ccccc32)c([N+](=O)[O-])c1`: the activation is inactive: 2.5%.

Regarding `Cc1nc2ccc3ccccc3c2s1.O=[N+]([O-])c1cc([N+](=O)[O-])c(O)c([N+](=O)[O-])c1`, the activation was inactive: -11.1%.

As for `Cc1cc(C)cc(OP(C)(=O)Nc2ccc(SC(F)(F)F)cc2)c1` (stereo not given), the activation is inactive: -1.28%.

In the case of `CP(=O)(NC(=O)Nc1ccccc1)Oc1ccccc1` (stereo not given), the activation is inactive: 6.21%.

With `CP(=O)(Oc1ccccc1)OC(c1ccccc1)C(F)(F)F` (stereo not given), the activation was inactive: 6.57%.

Regarding `Cc1cccc(C)c1OP(C)(=O)Nc1ccc(SC(F)(F)F)cc1` (stereo not given), the activation is inactive: 2.79%.

Take `CP(=O)(Nc1ccccn1)Oc1ccc(Cl)cc1` (stereo not given): the activation is inactive: -1.61%.

As to `CCOP(C)(=S)SCC(=O)NC(C)C(=O)O` (stereo not given), the activation is inactive: -1.38%.

On to `CCOC(=O)c1ccc(NP(C)(=O)Oc2ccc(OC)cc2)cc1` (stereo not given), for which the activation was inactive: 0.59%.

As for `COc1ccccc1OP(C)(=O)Nc1ccccc1` (stereo not given), the activation is inactive: 5.23%.

With `CP(=O)(Nc1ccccc1Br)Oc1ccccc1` (stereo not given), the activation is inactive: 2.62%.

As for `CP(=S)(Nn1cnnc1)Oc1ccccc1` (stereo not given), the activation is inactive: 8.63%.

Take `Cc1cccc(C)c1OP(C)(N)=O` (stereo not given): the activation was inactive: -3.48%.

As to `CC(C)(C)c1ccc(OP(C)(=O)Nc2ccc(SC(F)(F)F)cc2)cc1` (stereo not given), the activation was inactive: 3.08%.

Consider `O=[N+]([O-])c1ccc2c(c1)C=Nc1ccccc1O2`, for which the activation is inactive: -1.33%.

Regarding `COc1ccc(OP(C)(=O)Nc2cccc(F)c2)cc1` (stereo not given), the activation was inactive: -1.11%.

With `COc1ccccc1OP(C)(=O)Nc1cc(Cl)ccc1C` (stereo not given), the activation was inactive: 0.75%.

As to `Cc1cc(C)cc(OP(C)(N)=O)c1` (stereo not given), the activation is inactive: 2.11%.

As for `CCOC(=O)c1ccc(NP(C)(=O)Oc2ccccc2)cc1` (stereo not given), the activation is inactive: 4.75%.

As for `Cc1ccc(NP(C)(=O)Oc2ccccc2)c(C)c1` (stereo not given), the activation was inactive: -3.42%.

`COc1ccccc1OP(C)(=O)Nc1ccc(C)cc1` (stereo not given): the activation was inactive: -3.67%.

In the case of `CCN(CC)CCCOC(=O)C(O)(c1ccccc1)c1ccccc1`, the activation is inactive: 3.89%.

Regarding `CN(C)CCOC(=O)C(O)(c1ccccc1)C1CCCC1` (stereo not given), the activation is inactive: -1.66%.

Take `COc1ccc(OP(C)(=O)Nc2ccccn2)cc1` (stereo not given): the activation is inactive: 5.91%.

As for `CCc1ccc(OP(C)(=O)O)cc1`, the activation is inactive: 1.96%.

As for `COc1ccccc1OP(C)(=O)Nc1ccc(C)cc1C` (stereo not given), the activation is inactive: -3.86%.

In the case of `CP(=O)(Nc1ccccn1)Oc1ccccc1` (stereo not given), the activation was inactive: -8.14%.

`Cc1c(NP(C)(=O)Oc2ccc(C(C)C)cc2)c(=O)n(-c2ccccc2)n1C` (stereo not given): the activation is inactive: 3.1%.

On to `O=[N+]([O-])c1cc([N+](=O)[O-])c(Nc2ccccn2)c([N+](=O)[O-])c1`, for which the activation is inactive: 2.83%.

As for `COc1ccc(OP(C)(=O)Nc2ccccc2Br)cc1` (stereo not given), the activation is inactive: 4.35%.

Regarding `COc1ccccc1OP(C)(=O)Nc1ccc(C)c(C)c1` (stereo not given), the activation is inactive: 13.7%.

Turning to `Cc1cc(C)cc(OP(C)(=O)Nc2cccc(C(F)(F)F)c2)c1` (stereo not given), the activation is inactive: 3.67%.

For `CP(=O)(Nc1ccc(Cl)cc1Cl)Oc1ccccc1` (stereo not given), the activation was inactive: 3.17%.

With `CP(=O)(OCCOc1ccccc1)OCCOc1ccccc1`, the activation was inactive: -1.66%.

Consider `Cc1nc2ccc3ccccc3c2o1.O=[N+]([O-])c1cc([N+](=O)[O-])c(O)c([N+](=O)[O-])c1`, for which the activation is inactive: 8.81%.

Take `CP(=O)(OC12CC3CC(CC(C3)C1)C2)OC12CC3CC(CC(C3)C1)C2`: the activation is inactive: 9.95%.

As for `CCOC(=O)c1ccc(NP(C)(=O)Oc2ccc(Cl)cc2)cc1` (stereo not given), the activation was inactive: -0.91%.

As for `CCc1ccc(OP(C)(=O)Nc2cccnc2)cc1` (stereo not given), the activation is inactive: 0.35%.

Turning to `CP(=O)(Oc1ccccc1)N1CCOC1=O` (stereo not given), the activation is inactive: 2.75%.

Regarding `COc1ccccc1OP(C)(=O)Nc1c(C)n(C)n(-c2ccccc2)c1=O` (stereo not given), the activation was inactive: -0.03%.

Consider `COc1ccc(OP(C)(=O)Nc2ccc(Br)cc2)cc1` (stereo not given), for which the activation is inactive: 0.28%.

Consider `CCN(CC)CC(O)COC(=O)C(O)(c1ccccc1)C1CCCCC1` (stereo not given), for which the activation was inactive: -0.94%.

With `CN(C)C(=O)c1c([N+](=O)[O-])cc([N+](=O)[O-])cc1[N+](=O)[O-]`, the activation was inactive: 4.21%.

Take `CP(=O)(Nc1ccc(Cl)cc1)Oc1ccc(F)cc1` (stereo not given): the activation was inactive: 6.4%.

As for `COc1ccccc1OP(C)(=O)Nc1ccccc1Br` (stereo not given), the activation is inactive: -5.19%.

`CC(C)(C)c1ccc(OP(C)(=O)O)cc1`: the activation was inactive: 6.2%.

As for `CCOP(C)(=S)SCC(=O)NC(C)(CC)C(=O)O` (stereo not given), the activation is inactive: -7.9%.

Consider `Cc1ccccc1NP(C)(=O)Nc1ccccc1C`, for which the activation was inactive: 4.23%.

As for `CP(=O)(Nc1ccc2c(c1)OCCO2)Oc1ccccc1` (stereo not given), the activation is inactive: -4.17%.

`COc1ccc(NP(C)(=O)Oc2ccccc2OC)cc1` (stereo not given): the activation was inactive: 2.22%.

With `CN(C)CCOC(=O)C(O)(c1ccccc1)C1CCCCC1` (stereo not given), the activation was inactive: -6.72%.

Consider `COc1ccc(OP(C)(=O)Nc2cccc(Br)c2)cc1` (stereo not given), for which the activation was inactive: -4.18%.

Turning to `O=[N+]([O-])c1cc([N+](=O)[O-])c(NCC2CCS(=O)(=O)C2)c([N+](=O)[O-])c1` (stereo not given), the activation is inactive: 0.29%.

In the case of `COc1ccc(OP(C)(=O)Nc2ccc(SC(F)(F)F)cc2)cc1` (stereo not given), the activation is inactive: 1.37%.

As for `CCOC(=O)c1ccc(NP(C)(=O)Oc2ccc(F)cc2)cc1` (stereo not given), the activation was inactive: -2.45%.

For `CP(=O)(Nc1ccccc1)Oc1ccc(F)cc1` (stereo not given), the activation is inactive: -0.99%.

Regarding `CCN(CC)CCCOC(=O)C(O)(c1ccccc1)C1CCCCC1` (stereo not given), the activation is inactive: -5.87%.

In the case of `CC(C)c1ccc(OP(C)(=O)Nc2ccc(SC(F)(F)F)cc2)cc1` (stereo not given), the activation was inactive: -2.33%.

Consider `CP(=O)(Nc1ccccc1F)Oc1ccccc1` (stereo not given), for which the activation was inactive: 1.72%.

Take `O=C(OCCN1CCN(CCOCc2ccccc2)CC1)C(O)(c1ccccc1)c1ccccc1`: the activation is inactive: -0.93%.
